Experimental data reported in ChEMBL document CHEMBL5543107, “Discovery of a novel class of reversible monoacylglycerol lipase inhibitors for potential treatment of depression” (Eur J Med Chem, 2024).

Amino acid sequences for entries named in this document (tags omitted).
UniProt Q99685, whole entry: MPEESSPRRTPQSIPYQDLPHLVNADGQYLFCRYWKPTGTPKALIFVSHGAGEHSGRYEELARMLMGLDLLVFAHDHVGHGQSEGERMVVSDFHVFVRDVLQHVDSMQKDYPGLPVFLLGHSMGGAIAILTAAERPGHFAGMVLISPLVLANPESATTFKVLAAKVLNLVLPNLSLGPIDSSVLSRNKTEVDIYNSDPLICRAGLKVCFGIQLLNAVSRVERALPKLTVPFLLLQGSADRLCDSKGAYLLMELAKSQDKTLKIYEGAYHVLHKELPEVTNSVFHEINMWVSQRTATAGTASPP
UniProt P34972, whole entry: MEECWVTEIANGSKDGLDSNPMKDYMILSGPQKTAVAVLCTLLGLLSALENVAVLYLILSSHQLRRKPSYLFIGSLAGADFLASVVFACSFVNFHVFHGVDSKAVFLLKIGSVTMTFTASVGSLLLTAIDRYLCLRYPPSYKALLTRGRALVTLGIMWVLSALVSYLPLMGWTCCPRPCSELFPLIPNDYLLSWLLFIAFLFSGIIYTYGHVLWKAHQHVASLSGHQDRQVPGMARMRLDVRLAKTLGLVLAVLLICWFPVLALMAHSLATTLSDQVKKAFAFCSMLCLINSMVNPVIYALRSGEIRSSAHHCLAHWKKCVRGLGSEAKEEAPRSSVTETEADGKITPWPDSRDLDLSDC
UniProt P21554, whole entry: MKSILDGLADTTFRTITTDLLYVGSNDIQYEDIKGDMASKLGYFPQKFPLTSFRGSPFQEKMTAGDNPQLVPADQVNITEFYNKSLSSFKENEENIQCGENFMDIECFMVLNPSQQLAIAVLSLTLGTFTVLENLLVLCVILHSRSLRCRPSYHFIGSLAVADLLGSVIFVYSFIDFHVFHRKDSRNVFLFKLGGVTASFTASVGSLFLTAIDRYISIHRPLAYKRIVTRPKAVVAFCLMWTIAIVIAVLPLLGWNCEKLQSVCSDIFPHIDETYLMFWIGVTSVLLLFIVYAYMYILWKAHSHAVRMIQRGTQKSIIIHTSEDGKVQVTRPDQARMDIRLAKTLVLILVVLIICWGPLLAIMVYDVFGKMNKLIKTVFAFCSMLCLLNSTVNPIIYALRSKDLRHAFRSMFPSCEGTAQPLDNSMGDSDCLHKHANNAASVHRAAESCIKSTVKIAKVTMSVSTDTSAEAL

Tests used:
Monoglyceride lipase = Monoglyceride lipase (Homo sapiens, UniProt Q99685); assay: Inhibition of recombinant human MAGL at 4.4 uM preincubated for 10 mins followed by substrate addition and measured every 10 sec for 10 mins relative to control; conditions: time 20.0 min
[1] = target: Cannabinoid receptor 2 (Homo sapiens) (UniProt P34972); assay: Agonist activity at CB2R (unknown origin) at 10 uM relative to control; type: functional
[2] = target: T1, Fatty acid 2-hydroxylase (Homo sapiens) (UniProt Q7L5A8); assay: Inhibition of recombinant human FAAH at 10 uM preincubated for 5 mins followed by substrate addition for 5 mins by fluorometer assay relative to control; conditions: time 10.0 min
T1 sequence (whole entry): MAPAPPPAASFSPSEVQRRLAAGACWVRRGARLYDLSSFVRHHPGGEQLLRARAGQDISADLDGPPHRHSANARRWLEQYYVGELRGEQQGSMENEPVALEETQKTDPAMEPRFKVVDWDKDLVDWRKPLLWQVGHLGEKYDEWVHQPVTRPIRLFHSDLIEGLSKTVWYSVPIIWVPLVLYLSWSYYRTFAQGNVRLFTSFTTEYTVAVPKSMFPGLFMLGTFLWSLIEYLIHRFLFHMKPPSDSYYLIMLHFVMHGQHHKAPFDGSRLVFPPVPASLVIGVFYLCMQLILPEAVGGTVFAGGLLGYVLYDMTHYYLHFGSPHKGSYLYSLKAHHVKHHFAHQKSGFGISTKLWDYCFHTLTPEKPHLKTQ

[3] = target: Cannabinoid receptor 1 (Homo sapiens) (UniProt P21554); assay: Agonist activity at CB1R (unknown origin) at 10 uM relative to control; type: functional; conditions: filed as agonist
[4] = target: Cannabinoid receptor 1 (Homo sapiens) (UniProt P21554); assay: Agonist activity at CB1R (unknown origin) at 1 uM relative to control; type: functional

Structure (SMILES)	inhibition (Monoglyceride lipase)	Activity [1]	inhibition [2]	Activity [3]	Activity [4]
O=C(Oc1ccc([N+](=O)[O-])cc1)N1CCN(Cc2cccc(Oc3ccccc3)c2)CC1	89%				
O=C(c1ccc2ccc(=O)[nH]c2c1)N1CCN(c2ccc(-c3ccc(Cl)cc3)cn2)CC1		6.3%	23.6%	48.3%	
O=C(c1ccc2ccc(=O)[nH]c2c1)N1CCN(c2ccc(-c3ccc(Cl)cc3F)cn2)CC1		14.8%	31.1%		31.7%
